Measured values: patent publication US12404295B2, “(Hetero)aryl-methyl-thio-beta-D-galactopyranoside derivatives” (Idorsia Pharmaceuticals Ltd, priority 2019, dated 2025)

Chains of the proteins cited; added tags and fusions are not shown.
UniProt P09382, whole entry: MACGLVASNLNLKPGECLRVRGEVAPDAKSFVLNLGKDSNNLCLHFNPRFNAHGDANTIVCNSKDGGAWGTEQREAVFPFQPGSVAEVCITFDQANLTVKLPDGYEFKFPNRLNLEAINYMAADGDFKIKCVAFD

Each compound was assayed against human Gal-1 (hGal-1) (Homo sapiens (Human), UniProt P09382) (assay: competitive binding assay: biotinylated hGal-1 binding to microplate-adsorbed asialofetuin (ASF)). Settings: read-out: IC50 (Galectin-1 inhibition); Table 15.

SMILES	IC50
CS(=O)(=O)N1CC(O)([C@H](S[C@@H]2O[C@H](CO)[C@H](O)[C@H](n3cc(-c4cc(F)c(F)c(F)c4)nn3)[C@H]2O)c2ccccc2C(F)(F)F)C1 [Example 2..57.112R., (2S,3R,4S,5R,6R)-2-(((R)-(3-Hydroxy-1-(methylsulfonyl)azetidin-3-yl)(2-(trifluoromethyl)phenyl)methyl)thio)-6-(hydroxymethyl)-4-(4-(3,4,5-trifluorophenyl)-1H-1,2,3-triazol-1-yl)tetrahydro-2H-pyran-3,5-diol]	1200 nM
CS(=O)(=O)N1CC(O)([C@@H](S[C@@H]2O[C@H](CO)[C@H](O)[C@H](n3cc(-c4cc(F)c(F)c(F)c4)nn3)[C@H]2O)c2ccccc2C(F)(F)F)C1 [Example 2..57.112S., (2S,3R,4S,5R,6R)-2-(((S)-(3-Hydroxy-1-(methylsulfonyl)azetidin-3-yl)(2-(trifluoromethyl)phenyl)methyl)thio)-6-(hydroxymethyl)-4-(4-(3,4,5-trifluorophenyl)-1H-1,2,3-triazol-1-yl)tetrahydro-2H-pyran-3,5-diol]	76500 nM
COC(=O)N1CC(O)(C(S[C@@H]2O[C@H](CO)[C@H](O)[C@H](n3cc(-c4cc(F)c(F)c(F)c4)nn3)[C@H]2O)c2ccccc2C(F)(F)F)C1 (stereo partly drawn) [Example 2..58.112., Methyl 3-((((2S,3R,4S,5R,6R)-3,5-dihydroxy-6-(hydroxymethyl)-4-(4-(3,4,5-trifluorophenyl)-1H-1,2,3-triazol-1-yl)tetrahydro-2H-pyran-2-yl)thio)(2-(trifluoromethyl)phenyl)methyl)-3-hydroxyazetidine-1-carboxylate]	1470 nM

These reach a lower IC50. Values come first.

IC50	SMILES
580 nM	CS(=O)(=O)N1CC(O)(C(S[C@@H]2O[C@H](CO)[C@H](O)[C@H](n3cc(-c4cc(F)c(F)c(F)c4)nn3)[C@H]2O)c2ccccc2C(F)(F)F)C1 (stereo partly drawn) [Example 2..57.112., (2S,3R,4S,5R,6R)-2-(((3-Hydroxy-1-(methylsulfonyl)azetidin-3-yl)(2-(trifluoromethyl)phenyl)methyl)thio)-6-(Hydroxymethyl)-4-(4-(3,4,5-trifluorophenyl)-1H-1,2,3-triazol-1-yl)tetrahydro-2H-pyran-3,5-diol]
380 nM	CO[C@@H]1[C@@H](n2cc(-c3ccc(F)c(F)c3F)nn2)[C@@H](O)[C@@H](CO)O[C@H]1SC(c1ncccc1C)C1(O)CCC(F)(F)CC1 (stereo partly drawn) [Example 21.44.126.I., (2R,3R,4S,5R,6S)-6-(((4,4-Difluoro-1-hydroxycyclohexyl)(3-methylpyridin-2-yl)methyl)thio)-2-(hydroxymethyl)-5-methoxy-4-(4-(2,3,4-trifluorophenyl)-1H-1,2,3-triazol-1-yl)tetrahydro-2H-pyran-3-ol]
